The subject of experiment [1] is Human gastric cancer cell line SNU-1. Put plainly: Antitumor study (5): subcutaneously transplanted SNU-1 cells in nude mice. The following applies: SNU-1 xenograft, ADC (1) 10 mg/kg iv Day 0, paclitaxel 15 mg/kg iv Day 0, 7.
For experiment [2], the system named is Human breast cancer cell line MDA-MB-453. As to the kind of experiment: Antitumor study (4): subcutaneously transplanted MDA-MB-453 cells in nude mice. The settings on record: MDA-MB-453 xenograft, ADC (1) 0.5 mg/kg iv Day 0, paclitaxel 15 mg/kg iv Day 0, 7.
In experiment [3] the test system is ABCG2 gene. Put plainly: RNA expression analysis of JIMT-1 tumors: ABCG2. The experiment is classed as in vivo, human. The settings on record: JIMT-1 tumors in nude mice, after drug administration.
Experiment [4] relates to SLFN11 gene. Put plainly: RNA expression analysis of JIMT-1 tumors: SLFN11. Format: in vivo, human. The following applies: JIMT-1 tumors in nude mice, after drug administration.
In experiment [5] the test system is Human lung cancer cell line NCI-H441. As to the kind of experiment: Antitumor study (6): subcutaneously transplanted NCI-H441 cells in nude mice. The following applies: NCI-H441 xenograft, ADC (1) 10 mg/kg iv Day 0, paclitaxel 15 mg/kg iv Day 0, 7.

A word on the TGI: it is the reduction of tumour growth relative to the control group. Consider “antibody-drug conjugate (1): humanized anti-HER2 antibody (SEQ ID NO: 1 residues 1-449, SEQ ID NO: 2 residues 1-214) conjugated to exatecan-derivative drug-linker via a thioether bond”, for which the TGI in experiment [1] was 79%; in experiment [2], 75%; in experiment [5], 92%. The “average TPM value of the ABCG2 gene” value in experiment [3] is listed as “higher value than that in the tumors of the control group”. The “average TPM value of the SLFN11 gene” value in experiment [4] is on record as “lower value than that in the tumors of the control group”.

(Values after US12497465B2, “Combination of antibody-drug conjugate and tubulin inhibitor” (priority 2018, dated 2025).)
